Experiments:
CCR2 [1] = target: T1, CCR2 (Homo sapiens, UniProt P41597); experiment: Human peripheral blood mononuclear cell binding (CCR2 binding), 125I-human MCP-1 tracer; conditions: read-out: CCR2 Binding IC50; mean ± SD (n in parentheses); tested form: TFA
CCR2 [2] = target: T1, CCR2; experiment: CCR2 chemotaxis, MCP-1-induced, THP-1 cells; format: cell-based
Sodium Channel, Site 2 = conditions: at 10,000 nM

Amino acid sequences for entries named in this document (tags omitted). Residues count along the entry.
UniProt P41597, 1-360 isoform 2: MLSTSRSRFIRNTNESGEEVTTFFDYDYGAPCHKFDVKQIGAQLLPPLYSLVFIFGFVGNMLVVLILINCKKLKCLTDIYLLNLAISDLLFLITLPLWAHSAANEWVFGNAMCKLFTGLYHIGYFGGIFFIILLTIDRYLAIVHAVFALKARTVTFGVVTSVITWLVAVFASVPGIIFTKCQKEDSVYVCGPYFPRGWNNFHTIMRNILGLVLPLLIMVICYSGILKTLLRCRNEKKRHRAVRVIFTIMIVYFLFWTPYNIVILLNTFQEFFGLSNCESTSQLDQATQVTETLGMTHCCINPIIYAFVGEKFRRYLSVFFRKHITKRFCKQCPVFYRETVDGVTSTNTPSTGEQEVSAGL

CC(C)N(C)[C@@H]1CC[C@H](N2CC[C@H](NC(=O)c3cccc(C(F)(F)F)c3)C2=O)[C@H](CS(C)(=O)=O)C1
IC50 (CCR2 [1]): 1.83 nM | IC50 (CCR2 [2]; read-out: CCR2 Chemotaxis IC50, number in brackets = n, tested form: TFA): 2.63 nM

CC(C)N(C)[C@@H]1CC[C@H](N2CC[C@H](NC(=O)c3cccc(C(F)(F)F)n3)C2=O)[C@H](CS(C)(=O)=O)C1
Na+ channel binding (% inhibition) (Sodium Channel, Site 2): 6%, 10,000 nM

CC(C)N(C)[C@@H]1CC[C@H](N2CC[C@H](NC(=O)c3cccc(C(F)(F)F)c3)C2=O)[C@H](CS(=O)(=O)C(C)(C)C)C1
IC50 (CCR2 [2]; read-out: CCR2 Chemotaxis IC50, number in brackets = n): 0.21 nM

CCC[C@@H]1C[C@H](N(C)C(C)C)CC[C@@H]1N1CC[C@H](Nc2ncnc3ccc(C(F)(F)F)cc23)C1=O
Na+ channel binding (% inhibition) (Sodium Channel, Site 2): 97%, 10,000 nM
